Experimental data taken from patent US7749984B2, “Computer-based model for identification and characterization of non-competitive inhibitors of nicotinic acetylcholine receptors and related ligand-gated ion channel receptors” (priority 2003, dated 2010).

Chains of the proteins cited; added tags and fusions are not shown. Residues count along the entry.
UniProt P04757, 26-499 limits assumed: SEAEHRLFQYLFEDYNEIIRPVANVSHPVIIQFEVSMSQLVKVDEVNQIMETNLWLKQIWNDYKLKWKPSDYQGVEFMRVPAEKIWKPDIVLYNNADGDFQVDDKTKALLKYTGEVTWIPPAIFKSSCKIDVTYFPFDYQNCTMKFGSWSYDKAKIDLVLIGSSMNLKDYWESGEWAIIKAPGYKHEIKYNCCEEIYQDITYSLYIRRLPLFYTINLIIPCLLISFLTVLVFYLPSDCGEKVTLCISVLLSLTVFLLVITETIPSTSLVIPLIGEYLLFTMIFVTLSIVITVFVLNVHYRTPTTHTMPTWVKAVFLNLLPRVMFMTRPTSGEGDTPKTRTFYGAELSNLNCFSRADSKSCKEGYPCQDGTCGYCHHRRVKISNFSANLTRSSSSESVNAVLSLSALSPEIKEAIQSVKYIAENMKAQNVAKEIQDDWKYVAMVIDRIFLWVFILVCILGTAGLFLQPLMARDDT
UniProt P12392, 21-495 limits assumed: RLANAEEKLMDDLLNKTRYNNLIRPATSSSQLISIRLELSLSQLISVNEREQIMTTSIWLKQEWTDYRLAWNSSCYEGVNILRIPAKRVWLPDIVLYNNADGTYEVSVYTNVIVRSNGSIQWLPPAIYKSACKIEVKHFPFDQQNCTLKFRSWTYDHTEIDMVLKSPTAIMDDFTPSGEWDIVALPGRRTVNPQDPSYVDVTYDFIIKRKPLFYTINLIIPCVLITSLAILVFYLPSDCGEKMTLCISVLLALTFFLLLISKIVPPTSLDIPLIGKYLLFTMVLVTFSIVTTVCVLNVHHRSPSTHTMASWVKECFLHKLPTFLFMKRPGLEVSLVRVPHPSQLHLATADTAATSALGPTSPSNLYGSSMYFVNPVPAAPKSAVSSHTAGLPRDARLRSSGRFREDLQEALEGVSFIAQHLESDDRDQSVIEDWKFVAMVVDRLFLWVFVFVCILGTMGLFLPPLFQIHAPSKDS

Molecular target: α3β4 nAChR (Rattus norvegicus, UniProt P04757+P12392)
Conditions: for k′(NLC) retention capacity factor: 10 μM, 20 μl injected, ammonium acetate 10 mM pH 7.4/methanol 85:15; for koff dissociation constant rate / log K chromatographic equilibrium constant: NLC

SMILES	k′(NLC) retention capacity factor	koff dissociation constant rate [s⁻¹]	log K chromatographic equilibrium constant [M^−1]
CNCCCC(C#N)(c1ccc(O)c(OC)c1)C(C)C (stereo not drawn)	19.42	2.52	6.63
COc1cc(C(C#N)(CCCNCCc2ccc(OC)c(OC)c2)C(C)C)ccc1O (stereo not drawn)	99.29	0.53	7.48
